The experiment has as its target MOR‐H297^6.52A (μ‐opioid receptor mutated at H297^6.52 to A) (Rattus norvegicus, UniProt P33535, H297A). Put plainly: biochemical. On the set-up: expressed in transfected cells; linearized pcDNA3.1). The following applies: pH 7.4, read-out: E max (maximum intrinsic activity), [35S]-GTPγS binding. (In general: Binding of GTPγS marks nucleotide exchange on a G protein.)

Protein sequences, listed by entry. Tags and fused reporters are not part of them.
UniProt P33535, whole entry H297A: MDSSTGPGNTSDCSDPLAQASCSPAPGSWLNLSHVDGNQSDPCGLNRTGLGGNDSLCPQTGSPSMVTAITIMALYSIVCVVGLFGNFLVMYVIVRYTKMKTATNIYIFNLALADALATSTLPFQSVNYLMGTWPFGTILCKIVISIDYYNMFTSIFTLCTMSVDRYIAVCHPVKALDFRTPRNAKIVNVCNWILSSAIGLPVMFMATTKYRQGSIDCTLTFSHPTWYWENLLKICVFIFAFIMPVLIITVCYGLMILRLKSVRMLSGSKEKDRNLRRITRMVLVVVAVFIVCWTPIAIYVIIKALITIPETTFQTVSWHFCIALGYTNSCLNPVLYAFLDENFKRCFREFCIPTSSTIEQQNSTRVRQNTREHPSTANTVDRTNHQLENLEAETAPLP

The source of these data is paper PMC6932940, “Modulation of μ‐opioid receptor activation by acidic pH is dependent on ligand structure and an ionizable amino acid residue” (British Journal of Pharmacology, 2019).

As for `C[C@@H](NC(=O)[C@@H](N)Cc1ccc(O)cc1)C(=O)NCC(=O)N(C)[C@@H](Cc1ccccc1)C(=O)NCCO` [DAMGO, [D‐Ala2,N‐Me‐Phe4,Gly5‐ol]‐enkephalin], the Emax is 114 ± 3.5%.
